From patent US8008292B2, “Condensed benzamide compounds and inhibitors of vanilloid receptor subtype 1 (VR1) activity” (Japan Tobacco Inc., priority 2004, dated 2011)

The chains behind the UniProt entries cited, without tags or fusion partners.
UniProt Q8NER1, whole entry: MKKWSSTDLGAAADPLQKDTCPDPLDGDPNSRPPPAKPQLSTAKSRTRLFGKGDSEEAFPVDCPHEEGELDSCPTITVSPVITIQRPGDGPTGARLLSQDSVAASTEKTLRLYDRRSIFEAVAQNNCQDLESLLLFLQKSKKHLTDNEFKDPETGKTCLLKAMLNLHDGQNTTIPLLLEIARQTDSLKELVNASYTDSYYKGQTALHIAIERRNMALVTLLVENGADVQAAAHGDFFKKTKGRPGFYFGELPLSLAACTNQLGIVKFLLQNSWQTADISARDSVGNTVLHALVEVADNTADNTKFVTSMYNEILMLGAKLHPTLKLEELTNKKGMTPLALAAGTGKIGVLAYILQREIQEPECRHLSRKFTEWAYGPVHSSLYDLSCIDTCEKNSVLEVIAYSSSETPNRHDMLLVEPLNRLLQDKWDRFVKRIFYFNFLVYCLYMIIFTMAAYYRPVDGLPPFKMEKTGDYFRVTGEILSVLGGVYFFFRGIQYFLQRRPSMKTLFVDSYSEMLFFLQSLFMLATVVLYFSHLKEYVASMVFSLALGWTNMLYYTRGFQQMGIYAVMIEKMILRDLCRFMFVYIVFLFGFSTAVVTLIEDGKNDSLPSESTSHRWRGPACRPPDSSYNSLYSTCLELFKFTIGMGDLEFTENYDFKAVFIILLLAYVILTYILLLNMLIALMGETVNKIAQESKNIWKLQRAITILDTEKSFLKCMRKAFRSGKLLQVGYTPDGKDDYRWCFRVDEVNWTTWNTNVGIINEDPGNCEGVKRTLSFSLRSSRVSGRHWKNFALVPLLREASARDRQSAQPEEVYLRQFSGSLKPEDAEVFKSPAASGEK

Target: human VR1 (Homo sapiens, UniProt Q8NER1)
Assay: Inhibition of Ca2+ entry in cells caused by proton, in rat glioma (C6BU1) cells stably expressing human VR1 (Fura 2 fluorescence)
Details: inhibition of proton-induced Ca2+ entry
Method: The assay for evaluation of VR1 inhibition by the inventive compounds will be described below. The assay was intended to evaluate in vitro inhibition of Ca^2+ entry in cells caused by proton, one of the VR1 agonists.
Rat glioma (C6BU1) cells stably expressing human VR1 were suspended in 20 mM MES buffer (at pH 6.8, contg. 20 mM 2-morpholinoethanesulfonate (referred to as MES hereinafter), 115 mM NaCl, 5 mM KCl, 1 mM MgCl2 and 14 mM D-glucose) to make a cell density of 1×10^6 cells/mL. A fluorescent dye, Fura 2-AMsolution (DojindoCorporate, Cat. No. 343-05401) was added to the suspension to make a 5 μM concentration thereof. Further, Pluronic F-127 (Wako Pure Chemical Industries, Ltd., Cat. No. P6866) was added to make a 0.1% content thereof. Then, the suspension was incubated at 37° C. for 30 min. The cells were harvested and washed three times with 20 mM MES buffer. The cells were suspended again to make a cell density of 5×10^5 cells/mL. A 500-μL portion of the suspension was taken with a cuvette (MC MEDICAL, INC., Cat. No. SSR3121), to which 10 μL of 20 mM MES buffer containing 250 mM CaCl2 was added to incorporate Ca^2+ into the cells. […] The activity of the test compound was determined as a difference between the minimum of fluorescence intensity before agonist stimulation and its maximum after the stimulation. […]

IC50: 100 to 1000 nM
SMILES: CC(C)(O)c1ccc(NC(=O)c2cccc3c2OCCN3c2ncccc2Cl)cc1
